From US20160340403A1 (published 2016)
Changes are numbered by the printed parent chain.

T1: MART1 peptide on HLA-A*02:01 (human)
T1 peptide: AAGIGILTV

B1: Clone 830 (SIG35α with clone 830 TCRβ) (TCR, V domains shown)
Valpha: QKEVEQNSGPLSVPEGAIASLNCTYSDRGSQSFFWYRQYSGKSPELIMFIYSNGDKEDGRFTAQLNKASQYVSLLIRDSQPSDSATYLCAVSIGFGNVLHCGSGTQVIVLP
Vbeta: EAQVTQNPRYLITVTGKKLTVTCSQNMNHEYMSWYRQDPGLGLRQIYYSMNVEVTDKGDVPEGYKVSRKEKRNFPLILESPSPNQTSLYFCASSLGGAYEQYFGPGTRLTVT
B2: Clone 794 (SIG35α with clone 794 TCRβ) (TCR, V domains shown)
Valpha: B1 Valpha
Vbeta: B1 Vbeta with G96L, A98D, E100G, Q101Y, Y102T, P105S, T112V
B3: Clone 7Q (SIG35α with clone 7Q TCRβ) (TCR, V domains shown)
Valpha: B1 Valpha
Vbeta: EAQVTQNPRYLITVTGKKLTVTCSQNMNHEYMSWYRQDPGLGLRQIYYSMNVEVTDKGDVPEGYKVSRKEKRNFPLILESPSPNQTSLYFCASSPYMMNTEAFFGQGTRLTVV
B4: Clone 8H (SIG35α with clone 8H TCRβ) (TCR)
Valpha: B1 Valpha
beta TRBV27 TRBJ2-7 CDR3: CASSPLGAMEQYF
B5: Clone 9J (SIG35α with clone 9J TCRβ) (TCR)
Valpha: B1 Valpha
beta TRBV5-1 TRBJ1-2 CDR3: CASSWTGDGYTF
B6: Clone 1086 (SIG35α with clone 1086 TCRβ) (TCR)
Valpha: B1 Valpha
beta TRBV27 TRBJ1-2 CDR3: CASSLHGPGGYTF
B7: Clone 523 (SIG35α with clone 523 TCRβ) (TCR)
Valpha: B1 Valpha
beta TRBV27 TRBJ2-7 CDR3: CASGSYEQYF
B8: Clone 788 (SIG35α with clone 788 TCRβ) (TCR)
Valpha: B1 Valpha
beta TRBV27 TRBJ2-7 CDR3: CASGPSYEQYF
B9: Clone 413 (SIG35α with clone 413 TCRβ) (TCR)
Valpha: B1 Valpha
beta TRBV27 TRBJ1-4 CDR3: CASSVFGGDMGEKLFF
B10: Clone 6B (SIG35α with clone 6B TCRβ) (TCR)
Valpha: B1 Valpha
beta TRBV2 TRBJ2-1 CDR3: CASSEVAWQFF
B11: Clone 9I (SIG35α with clone 9I TCRβ) (TCR)
Valpha: B1 Valpha
beta TRBV5-1 TRBJ1-1 CDR3: CASSLAMGATEAFF
B12: Clone 11C (SIG35α with clone 11C TCRβ) (TCR)
Valpha: B1 Valpha
beta TRBV2 TRBJ1-2 CDR3: CASDEGFGYTF
B13: Clone 6X (SIG35α with clone 6X TCRβ) (TCR)
Valpha: B1 Valpha
beta TRBV2 TRBJ2-3 CDR3: CATGVTDTQYF
B14: Clone 7E (SIG35α with clone 7E TCRβ) (TCR)
Valpha: B1 Valpha
beta TRBV27 TRBJ1-3 CDR3: CASSRDFGNTIYF

Molecular target: T1, MART1 peptide on HLA-A*02:01
Assay: cytokine release

Row | binding result | Binder
1 | recognises | B1
2 | recognises | B2
3 | recognises | B3
4 | recognises | B4
5 | recognises | B5

Molecular target: T1, MART1 peptide on HLA-A*02:01
Assay: IL-2 ELISPOT; Jurkat76/CD8αβ transfectants; T2 cells pulsed with graded concentrations of MART1 27-35 peptide; full-length, on cells

Row | EC50 of peptide [nM] | Binder
6 | 630 | B6
7 | 2700 | B7
8 | 570 | B8
9 | 10000 | B9

Molecular target: T1, MART1 peptide on HLA-A*02:01
Assay: IL-2 ELISPOT; Jurkat 76/CD8αβ transfectants; T2 cells pulsed with graded concentrations of MART1 27-35 peptide; full-length, on cells

Row | EC50 of peptide [µg/mL] | Binder
10 | 120 | B10
11 | 97 | B11
12 | 292 | B12
13 | 83 | B13

Molecular target: T1, MART1 peptide on HLA-A*02:01
Assay: IL-2 ELISPOT; Jurkat76 transfectants without CD8; T2 cells pulsed with graded concentrations of MART1 27-35 peptide; full-length, on cells

Row | EC50 of peptide [nM] | Binder
14 | 2400 | B6
15 | 2900 | B8

Molecular target: T1, MART1 peptide on HLA-A*02:01
Assay: IL-2 ELISPOT; Jurkat 76 transfectants without CD8; T2 cells pulsed with graded concentrations of MART1 27-35 peptide; full-length, on cells

Row | EC50 of peptide [µg/mL] | Binder
16 | 600 | B10
17 | 140 | B11
18 | 102 | B14
19 | 2460 | B12
20 | 150 | B13
